Measurements as given in patent publication US20130131059A1, “METHOD FOR TREATING OPHTHALMIC DISEASES USING KINASE INHIBITOR COMPOUNDS IN PRODRUG FORMS” (INSPIRE PHARMACEUTICALS, INC., priority 2010, published 2013).

Amino acid sequences for entries named in this document (tags omitted). A change or cut given only in a name is not applied to a line headed by its entry.
UniProt O75116: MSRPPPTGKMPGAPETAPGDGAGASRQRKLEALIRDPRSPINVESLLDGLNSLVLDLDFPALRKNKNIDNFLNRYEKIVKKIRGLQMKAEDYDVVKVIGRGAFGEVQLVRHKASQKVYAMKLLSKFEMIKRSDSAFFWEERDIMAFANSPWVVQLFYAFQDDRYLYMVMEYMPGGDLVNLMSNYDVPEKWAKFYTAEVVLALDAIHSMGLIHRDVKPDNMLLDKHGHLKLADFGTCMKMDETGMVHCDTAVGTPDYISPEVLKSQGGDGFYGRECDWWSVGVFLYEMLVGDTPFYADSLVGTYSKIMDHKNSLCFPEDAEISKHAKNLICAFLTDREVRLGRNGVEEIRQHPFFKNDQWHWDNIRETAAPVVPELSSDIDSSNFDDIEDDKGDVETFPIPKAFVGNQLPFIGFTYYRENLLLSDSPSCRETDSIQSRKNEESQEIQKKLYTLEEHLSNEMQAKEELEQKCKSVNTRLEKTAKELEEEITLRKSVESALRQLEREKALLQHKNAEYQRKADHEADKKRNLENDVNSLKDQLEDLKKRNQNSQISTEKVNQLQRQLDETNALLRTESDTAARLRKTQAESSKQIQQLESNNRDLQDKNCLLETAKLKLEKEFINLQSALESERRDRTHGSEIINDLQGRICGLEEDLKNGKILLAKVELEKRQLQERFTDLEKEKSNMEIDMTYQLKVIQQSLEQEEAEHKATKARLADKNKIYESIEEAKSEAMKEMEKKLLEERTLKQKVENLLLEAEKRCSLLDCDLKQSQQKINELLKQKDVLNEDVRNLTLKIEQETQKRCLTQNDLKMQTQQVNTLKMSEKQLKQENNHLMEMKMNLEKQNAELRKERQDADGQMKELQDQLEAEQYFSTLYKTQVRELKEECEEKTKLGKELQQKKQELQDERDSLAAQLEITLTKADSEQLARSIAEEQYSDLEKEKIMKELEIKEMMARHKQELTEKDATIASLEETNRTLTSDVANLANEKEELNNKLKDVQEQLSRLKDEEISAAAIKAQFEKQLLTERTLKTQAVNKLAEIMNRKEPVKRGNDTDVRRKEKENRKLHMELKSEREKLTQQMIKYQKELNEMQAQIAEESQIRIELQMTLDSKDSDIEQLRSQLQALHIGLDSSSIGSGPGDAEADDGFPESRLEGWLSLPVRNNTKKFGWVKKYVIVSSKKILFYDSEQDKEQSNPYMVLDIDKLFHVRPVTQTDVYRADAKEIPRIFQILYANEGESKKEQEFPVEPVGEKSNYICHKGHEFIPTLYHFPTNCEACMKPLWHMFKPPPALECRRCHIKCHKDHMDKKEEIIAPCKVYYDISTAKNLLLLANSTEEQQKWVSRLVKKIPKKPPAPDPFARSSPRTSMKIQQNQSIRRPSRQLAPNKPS

Target: T1, ROCK2 (Homo sapiens, UniProt O75116)
T1 construct: purchased Upstate/Chemicon 14-451
Assay: Rho kinase inhibition assay (IMAP fluorescence polarization), ROCK2
Type: biochemical
Conditions: 10 μM ATP, 60 min at room temperature
Description: Inhibition of ROCK2 and ROCK1 activity was determined using the IMAP™ Screening Express Kit (Molecular Devices product number #8073). ROCK2 enzyme (Upstate/Chemicon #14-451), ROCK1 (Upstate/Chemicon #14-601) and Fluorescein tagged substrate peptide Fl-[…] (Molecular Devices product number R7184) was pre-incubated with a test compound for 5 minutes in buffer containing 10 mM Tris-HCl pH 7.2, 10 mM MgCl2, and 0.1% BSA. Following the pre-incubation, 10 μM ATP was added to initiate the reaction. After 60 minutes at room temperature, Molecular Devices IMAP™ binding solution was added to bind phosphorylated substrate. After 30 minutes of incubation in the presence of the IMAP™ beads, the fluorescence polarization was read and the ratio was reported as mP. IC50 values for compounds and EC50 values for ATP were calculated using the Prism software from Graphpad, and the results are summarized in Table 1.
See Tian et al., Arch. Ophthalmol. […] Ophthalmol. Vis. Sci. 40: 239-242, 1999; Tian, et al., Exp. Eye Res. 68: 649-655; 1999; Sabanay, et al., Arch. Ophthalmol. […] Cytoskel. 29: 321-338, 1994; Tian, et al., Exp. Eye Res. 71: 551-566, 2000; Tokushige, et al., Invest. Ophthalmol. Vis. Sci. 48: 3216-3222, 2007; Honjo, et al., Invest. Ophthalmol. Vis.

IC50: 2.2 nM
Compound: Cc1ccc(CN2CC[C@@H](Nc3cccc4cnccc34)C2)cc1OCCO [Compound 49, [2-(5-(((R)-3-(isoquinolin-5-ylamino)pyrrolidin-1-yl)methyl)-2-methylphenoxy)]ethanol]
